Screening results: PubChem BioAssay, Broad Institute
Most compounds without a hit are left out; they make up all but 1.7% or so of the library.
CAL PDZ FP-1 – inhibitors of human CAL PDZ peptide binding; inhibition, % at 24.9 µM; hit rate 0.92% among 300,000; Q9HD26; purified CAL PDZ, TMR-peptide fluorescence polarization, 1 h; AID 602252;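 active = mean inhibition of at least 30% with at least half of replicates also reaching 30%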
Yeast UUG start – modulators of start codon recognition fidelity in yeast; AID 602363; activity score, % at 18.7 µM; S. cerevisiae UUG-firefly luciferase reporter, luminescence/redox ratio; actives 0.13% (n = 350,000);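 active = replicate mean at a twofold rise or more, about +100% in these data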;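 note: firefly luciferase made from a UUG start codon reports start codon fidelity; reporter light over untreated wells divided by growth signal over untreated wells; some hits fall short of that in this replicate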
CDK5 p35 inh – CDK5/p35 (human) kinase inhibition; Q00535+Q15078; Recombinant CDK5/p35, ADP-Glo luminescence, 60 min; inhibition, % at 10 µM; hit rate 0.01% among 330,000; AID 488839;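 active = highest replicate inhibition of at least 50% and at least 75% of replicates reaching 50%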
DYRK1A inh – Dyrk1A (rat) kinase inhibition. ADP-Glo luminescence, NFATc1 peptide. inhibition, % at 12.5 µM. hit rate 0.43% among 310,000; in the data active = inhibition above about 50%
CAL PDZ FP-2 – blocks peptide binding to human CAL PDZ domain; AID 504414; inhibition, % at 20 µM; hit rate 0.02% among 330,000; purified CAL PDZ, TMR-peptide fluorescence polarization, 1 h; Q9HD26;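 active = highest replicate inhibition of at least 40%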
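System: purified tagged CAL PDZ domain construct (CerCALP). Schedule: 1 h incubation at room temperature before polarization reading. Medium: 25 mM sodium phosphate pH 7.4, 150 mM NaCl, TCEP, IgG, Thesit. Read-out: percent inhibition from loss of millipolarization. Measured by: FP readout, S and P plane fluorescence. Probe or stimulus: fluorescent TMR peptide probe.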
dFosB act-1 – enhances mouse delta FosB homodimer DNA binding. P13346. purified delta FosB, TAMRA-CDK5 oligo fluorescence polarization; percent of positive-control signal above neutral wells. activation, % at 25 µM. hit rate 0.99% among 340,000;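 active = mean activation above about 17%, with every replicate also reaching it, limit read from the data, passing the limit was not always enough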
dFosB act-2 – activators of mouse delta FosB homodimer DNA binding; shares compounds with dFosB act-1; purified delta FosB, TAMRA-CDK5 oligo fluorescence polarization; normalised: neutral wells 0, positive control 100; activation, % at 24.9 µM; 2,400 tested, under 10 active;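 active = highest replicate activation at or above 34% and every replicate reaching that threshold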;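 also: higher polarization means more probe DNA bound by delta FosB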
A number is an active result; . = inactive; / = no result given.

SMILES	CAL PDZ FP-1	Yeast UUG start	CDK5 p35 inh	DYRK1A inh	CAL PDZ FP-2	dFosB act-1	dFosB act-2
C[C@@H]1CN([C@@H](C)CO)C(=O)c2cc(NC(=O)Nc3ccc4c(c3)OCO4)ccc2O[C@@H](C)CCCCO[C@H]1CN(C)C(=O)c1ccccc1	/	.	/	/	/	/	/
O=C1[C@H](Oc2ccccc2)[C@@H](c2ccccc2)N1c1ccncc1	.	.	.	.	.	17.7	.
O=C1[C@@H](Oc2ccccc2)[C@@H](c2ccccc2)N1c1ccccc1	.	.	.	.	.	.	/
CCCC#Cc1ccc2c(c1)O[C@H](CN(C)C(=O)NC(C)C)[C@H](C)CN([C@H](C)CO)S2(=O)=O	/	.	/	/	/	/	/
C[C@@H]1CCCCO[C@@H](CN(C)C(=O)Nc2cccc3ccccc23)[C@H](C)CN([C@H](C)CO)C(=O)c2cc(NC(=O)c3ccncc3)ccc2O1	/	.	/	/	/	/	/
Cc1ccc(CC2S/C(=N/N=C/c3ccco3)NC2=O)cc1 (configuration not stated)	.	/	.	/	.	.	/
Cc1cccc(CC2S/C(=N/N=C/c3ccco3)NC2=O)c1 (configuration not stated)	.	.	.	.	.	24.7	.
O=C1N/C(=N/N=C/c2ccco2)SC1Cc1ccccc1 (configuration not stated)	/	.	.	.	.	21.0	.
CCC(=O)Nc1ccc2c(c1)C(=O)N(C)C[C@H](OC)[C@@H](C)CN(C(=O)C1CC1)[C@@H](C)CO2	/	.	/	/	/	/	/
Cc1cc(C)c2cc(CN(CCN3CCCC3)C(=O)Nc3ccc(F)cc3)c(=O)[nH]c2c1	.	.	.	.	.	31.3	.
O=C(CCc1nc2ccccc2c(=O)[nH]1)NCCN1C(=O)S/C(=C\c2ccccc2Cl)C1=O	.	.	.	.	.	.	/
O=C(CCc1nc2ccccc2c(=O)[nH]1)NCCN1C(=O)S/C(=C\c2ccc(OC(F)F)cc2)C1=O	.	.	.	.	.	46.5	.
COc1ccc(C2CC(c3ccccc3)=NN2C(=O)COC(=O)c2cc(S(=O)(=O)N3CCOCC3)ccc2Cl)cc1 (configuration not stated)	.	/	.	.	.	30.5	.
C[C@H](CO)N1C[C@H](C)[C@H](CN(C)C(=O)Nc2ccc(F)cc2)Oc2ncc(C#C[C@@H](C)O)cc2C1=O	/	.	/	/	/	/	/
Cc1ccc(OCc2nnc(SCC(=O)Nc3sc(C)c(C)c3C#N)n2C)cc1	.	.	.	.	.	26.4	.
COc1ccccc1CNC(=O)COC(=O)c1cc2ccccc2o1	/	.	.	/	.	30.8	.
COc1ccccc1CNC(=O)c1cc2ccccc2o1	/	.	.	.	.	.	/
C[C@@H]1CN([C@H](C)CO)C(=O)c2cc(C3=CCCCC3)cnc2O[C@@H]1CN(C)C(=O)c1cccc(F)c1	/	.	/	/	/	/	/
CC(C)NC(=O)N[C@H]1CC[C@@H](CC(=O)N2CCCCC2)O[C@H]1CO	/	.	/	/	/	/	/
Cc1cccc(OCC(=O)NNC(=O)Nc2cccc(Cl)c2)c1C	.	.	.	.	.	17.9	.
COc1ccc(OCC(=O)NNC(=O)Nc2cccc(Cl)c2)cc1	.	.	.	.	.	.	/
O=C(CCc1ccccc1)NNC(=O)Nc1cccc(Cl)c1	.	.	.	.	.	.	/
O=C(Cc1cccc2ccccc12)NNC(=O)Nc1cccc(Cl)c1	.	.	.	.	.	31.2	.
Cc1ccccc1S(=O)(=O)N1C[C@@H](O)COC[C@@H]2O[C@@H](CC(=O)N3CCCCC3)CC[C@H]21	/	.	/	/	/	/	/
CCOc1ccc(/C=N/N2C(=O)C(CC(=O)Nc3ccc(F)cc3F)SC2=NC)cc1OC (configuration not stated)	.	.	.	.	.	25.7	.
SMILES	CAL PDZ FP-1	Yeast UUG start	CDK5 p35 inh	DYRK1A inh	CAL PDZ FP-2	dFosB act-1	dFosB act-2
CN=C1SC(CC(=O)Nc2ccccc2F)C(=O)N1/N=C/c1ccc(O)c(OC)c1 (configuration not stated)	.	/	.	/	.	.	/
COc1ccc(OC)c(NC(=O)C(C)OC(=O)c2cc3ccccc3[nH]2)c1 (configuration not stated)	.	.	.	.	.	18.6	.
CCCCC(=O)Nc1nnc(S(=O)(=O)N(CC)c2ccccc2)s1	/	.	.	/	.	18.0	.
O=C(COC(=O)c1cc(Cl)ccc1O)Nc1ccc2c(c1)OCCO2	.	.	.	/	.	29.7	.
O=C(COC(=O)c1ccccc1F)Nc1ccc2c(c1)OCCO2	.	.	.	.	.	.	/
O=C(NCC(=O)N(c1ccc2c(c1)OCO2)C(C(=O)NC1CCCC1)c1cccs1)c1ccco1 (configuration not stated)	.	.	.	.	.	50.1	.
O=C(NC[C@@H]1N[C@@H](CO)[C@H]1c1ccc(C2=CCCCC2)cc1)c1cccc(F)c1	/	.	/	/	/	/	/
CCN(CC)CCNC(=O)CCc1c(C)nc2c(c(C)nn2-c2ccc(C)c(C)c2)c1C	.	.	.	.	.	19.6	.
Cc1cc(C)n(CC(=O)NNC(=O)CCCOc2ccc(Cl)c(C)c2)n1	.	.	.	.	.	20.8	.
Cc1cc(C)n(CC(=O)NNC(=O)CCCOc2ccc(Cl)cc2C)n1	.	.	.	.	.	34.0	.
C[C@H](CO)N1C[C@H](C)[C@@H](CN(C)C(=O)CCC(F)(F)F)OCCCC[C@H](C)Oc2ccc(NS(=O)(=O)c3cn(C)cn3)cc2C1=O	/	.	/	/	/	/	/
C[C@H]1CN([C@@H](C)CO)C(=O)Cc2cc(NS(C)(=O)=O)ccc2O[C@@H]1CN(C)C(=O)Nc1ccc2c(c1)OCO2	/	.	/	/	/	/	/
Cc1occc1C(=O)Nc1sc2c(c1C(N)=O)CCC(C(C)(C)C)C2 (configuration not stated)	.	.	.	.	.	.	/
CC(C)(C)C1CCc2c(sc(NC(=O)c3ccncc3)c2C(N)=O)C1 (configuration not stated)	.	.	.	.	.	34.0	.
Cc1nnc(NC(=O)c2cccc(F)c2)s1	.	.	.	.	.	.	/
O=C(Nc1nnc(-c2cccs2)s1)c1cccc(F)c1	.	.	.	.	.	36.1	.
C[C@@H]1CN([C@@H](C)CO)C(=O)Cc2cc(NC(=O)CCC(F)(F)F)ccc2O[C@H]1CN(C)S(=O)(=O)c1ccccc1	/	.	/	/	/	/	/
CO[C@@H]1CN(C)C(=O)c2cc(NC(=O)c3ccc(F)cc3)ccc2OC[C@H](C)N(C(C)=O)C[C@H]1C	/	.	/	/	/	/	/
COc1cccc(Nc2nc(N)c([N+](=O)[O-])c(NCc3ccccc3)n2)c1	.	.	.	/	.	50.6	.
COCC(=O)N(C)C[C@@H]1Oc2ncc(-c3ccccc3F)cc2C(=O)N([C@H](C)CO)C[C@H]1C	/	.	/	/	/	/	/
